Target: TtgR (Pseudomonas putida, UniProt Q9AIU0)
Assay type: cell-based
Conditions: high-copy plasmid, LB, 37°C; extracellular inducer; induction (derepression); lumped parameter of uptake, DNA binding and Kd, not a pure affinity; read-out: Half maximal parameter

By UniProt entry, the sequences of proteins in these tests, tags left out. Where a name states a change or a piece, a line headed by the entry shows the natural chain unless it says otherwise.
UniProt Q9AIU0: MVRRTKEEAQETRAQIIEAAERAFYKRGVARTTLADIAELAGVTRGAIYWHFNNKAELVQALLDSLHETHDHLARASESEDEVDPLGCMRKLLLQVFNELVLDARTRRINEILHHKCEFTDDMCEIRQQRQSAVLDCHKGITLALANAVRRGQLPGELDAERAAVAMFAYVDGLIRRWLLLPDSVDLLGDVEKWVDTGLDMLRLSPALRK

Q: `O=C1C[C@@H](c2ccc(O)cc2)Oc2cc(O)cc(O)c21` [naringenin] was tested. Which EC50 did it give?
A: The EC50 was 550 ± 50 µM.

Source: paper PMC4551912, “Synthetic biosensors for precise gene control and real-time monitoring of metabolites” (Nucleic Acids Research, 2015)
